Test results published in patent EP1734031A1, “NOVEL 2-(ALPHA-N-PENTANONYL)BENZOETES, THEIR PREPARATION AND USE” (priority 2004, dated 2005).

Test: in vivo
Settings: mouse, po, LD50 value, ICR mice, oral gavage, observed 7 days, method of Bliss

CCCCC(O)c1ccccc1C(=O)O (stereo not drawn) [Calcium 2-(α-hydroxypentyl)benzoate]
LD50 at 168 h: 1520 mg/kg
